Results published in patent publication US8293782B2, “Compound, probe containing the novel compound, and fluorescence-imaging contrast agent containing the novel compound or the probe” (Canon Kabushiki Kaisha, priority 2009, dated 2012).

Key:
[1] = Fading evaluation in fetal bovine serum under interior light (680 LUX); format: physicochemical; conditions: 5 μM in FBS, absorbance at maximum absorption wavelength after 24 hours
Procedure: The ordinate of FIG. 10 indicates log(At/A0) where A0 and At respectively represent absorbance at the maximum absorption wavelength after the lapse of 0 and t hours from the irradiation of the interior light. The fading rate in Table 1 is expressed by (A0-A24)/A0, that is, variation in absorbance at the maximum absorption wavelength after the lapse of 24 hours.

Suit2 tumor cells = test: Fluorescence kinetics evaluation in tumor-bearing site, Suit2 tumor-transplanted-model mouse; conditions: intensity before injection = 1

| Fading rate (A0-A24)/A0 [1] [%] | Relative fluorescence intensity at tumor-bearing site (Suit2 tumor cells; 15 minutes after administration) | Relative fluorescence intensity at tumor-bearing site (Suit2 tumor cells; 1 hour after administration) | Relative fluorescence intensity at tumor-bearing site (Suit2 tumor cells; 3 hours after administration) | Relative fluorescence intensity at tumor-bearing site (Suit2 tumor cells; 5 hours after administration) | Relative fluorescence intensity at tumor-bearing site (Suit2 tumor cells; 1 day after administration) | Relative fluorescence intensity at tumor-bearing site (Suit2 tumor cells; 2 days after administration) | Relative fluorescence intensity at tumor-bearing site (Suit2 tumor cells; 3 days after administration) | Substance |
| --- | --- | --- | --- | --- | --- | --- | --- | --- |
| 3.4 |  |  |  |  |  |  |  | Alexa Fluor (trademark) 790 [Reagent 2] |
|  | 34.1 | 26.2 | 26.3 | 24.5 | 22.4 | 18.1 | 13.7 | Alexa Fluor (trademark) 750 [Reagent 1] |
